The record followed here is PubChem BioAssay AID256 (DTP/NCI, 2004).

The assay concerns CD2F1 mice, L1210 leukemia ip, survival T/C. In words: NCI In Vivo Anticancer Drug Screen. Data for tumor model L1210 Leukemia (intraperitoneal) in CD2F1 (CDF1) mice. The note with it: higher = longer survival. The essentials:
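Antitumor effect is scored in animals hosting a serially transplanted tumor. Values compare compound-dosed animals against vehicle-only controls as a simple quotient.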

Inconclusive results and toxic doses are left out.

In the case of `CN(Cc1cnc2nc(N)nc(N)c2n1)c1ccc(C(=O)N[C@@H](CCC(=O)O)C(=O)O)cc1`, the T/C by setting is: (endpoint: mean survival time, dose: 0.25 mg/kg/injection, schedule: Q03HX024 (ip), vehicle: saline) 162 % of control; (endpoint: mean survival time, dose: 0.67 mg/kg/injection, schedule: Q01DX009 (ip), vehicle: sodium bicarbonate) 162 % of control; (endpoint: mean survival time, dose: 1.5 mg/kg/injection, schedule: Q01DX009 (ip), vehicle: other) 103 % of control; (endpoint: mean survival time, dose: 2.0 mg/kg/injection, schedule: Q01DX009 (ip), vehicle: saline with Tween-80) 172 % of control; (endpoint: mean survival time, dose: 4.0 mg/kg/injection, schedule: Q03DX003 (ip), vehicle: sodium bicarbonate) 172 % of control; (endpoint: mean survival time, dose: 5.0 mg/kg/injection, schedule: Q04DX003 (ip), vehicle: sodium bicarbonate) 172 % of control. Also, the T/C by setting is: (endpoint: mean survival time, dose: 8.0 mg/kg/injection, schedule: Q04DX003 (ip), vehicle: saline) 162 % of control; (endpoint: median survival time, dose: 0.75 mg/kg/injection, schedule: Q01DX009 (ip), vehicle: sodium bicarbonate) 151 % of control; (endpoint: median survival time, dose: 3.0 mg/kg/injection, schedule: Q01DX005 (ip), vehicle: sodium bicarbonate) 172 % of control; (endpoint: median survival time, dose: 3.13 mg/kg/injection, schedule: Q01DX001 (ip), vehicle: sodium bicarbonate) 103 % of control; (endpoint: median survival time, dose: 60.0 mg/kg/injection, schedule: Q01DX001 (ip), vehicle: sodium bicarbonate) 151 % of control; (endpoint: median survival time, dose: 72.0 mg/kg/injection, schedule: Q01DX001 (ip), vehicle: sodium bicarbonate) 162 % of control. Further, the T/C (endpoint: median survival time, dose: 100.0 mg/kg/injection, schedule: Q01DX001 (ip), vehicle: sodium bicarbonate) was 151 % of control.
